Reference: US20200017566A1 (priority 2014, published 2020)
Like-named read-outs stand apart in the source and are kept apart here.

Biological target: T1, human ferroportin (Homo sapiens, UniProt Q9NP59)
T1 construct: expressed in transfected cells
T1 sequence (Q9NP59 1-571): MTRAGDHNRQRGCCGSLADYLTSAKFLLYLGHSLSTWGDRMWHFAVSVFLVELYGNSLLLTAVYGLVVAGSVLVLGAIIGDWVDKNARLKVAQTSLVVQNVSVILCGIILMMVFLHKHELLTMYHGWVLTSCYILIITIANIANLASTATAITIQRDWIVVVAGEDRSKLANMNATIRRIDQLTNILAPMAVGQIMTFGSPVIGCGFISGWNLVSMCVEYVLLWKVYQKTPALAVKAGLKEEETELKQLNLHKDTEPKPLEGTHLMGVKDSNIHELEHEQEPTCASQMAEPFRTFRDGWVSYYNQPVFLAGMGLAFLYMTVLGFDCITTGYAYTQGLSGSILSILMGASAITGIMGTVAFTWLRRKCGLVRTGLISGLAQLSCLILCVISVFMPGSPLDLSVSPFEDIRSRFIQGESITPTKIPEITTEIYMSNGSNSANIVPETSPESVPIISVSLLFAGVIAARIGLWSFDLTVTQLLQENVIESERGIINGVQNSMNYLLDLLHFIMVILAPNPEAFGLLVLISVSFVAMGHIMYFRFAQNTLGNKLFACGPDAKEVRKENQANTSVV
Type: cell-based
Details: read-out: Potency EC50
Procedure: Peptide analogues were tested in vitro for induction of internalization of the human ferroportin protein. Following internalization, the […] are degraded. The assay measures a decrease in fluorescence of the receptor.
The cDNA encoding the human ferroportin (SLC40A1) was cloned from a cDNA clone from Origene (NM_014585). The DNA encoding the ferroportin was amplified by PCR using primers also encoding terminal restriction sites for subcloning, but without the termination codon. The ferroportin receptor was subcloned into a mammalian GFP expression vector containing a neomycin (G418) resistance marker in such that the reading frame of the ferroportin was fused in frame with the GFP protein. The fidelity of the DNA encoding the protein was confirmed by DNA sequencing. HEK293 cells were used for transfection of the ferroportin-GFP receptor expression plasmid. The cells were grown according to standard protocol in growth medium and transfected with the plasmids using Lipofectamine (manufacturer's protocol, Invitrogen). […] The cells were propagated and frozen in aliquots.
Compound was added to desired final concentration for at least 18 hours in the incubator. […] Compound was added to desired final concentration for at least 18 hours but no more than 24 hours in the incubator.
A retro inverse peptide is a peptide with a reversed sequence in all D amino acids. An example is that Hy-Glu-Thr-His-NH2 becomes Hy-DHis-DThr-DGlu-NH2. The EC50 of these reference compounds for ferroportin degradation was determined according to the activity assay described above.

Substance	EC50 (Table 11, reference compounds)	EC50 (Table 14)
Hy-DTHFPIC(1)IFC(2)C(3)GC(2)C(4)HRSKC(3)GMC(4)C(1)KT-OH [Hepcidin]	34 nM	34 nM
Isovaleric acid-DTHFPICIFGPRSK-[(m-PEG8)]-GWVC-NH2 [Cmpd4]	–	6.4 nM
